Experimental data reported in patent US20080311126A1, “Antisense Oligonucleotides Directed to Ribonucleotide Reducatase R2 and Uses Thereof in Combination Therapies for the Treatment of Cancer” (Genesense Technologies, Inc, priority 2004, published 2008).

System: Caki-1 human renal carcinoma
Experiment: Caki-1 renal tumour xenograft in SCID mice, SEQ ID NO:1 and interleukin-2
Format: in vivo
Details: Example 10; SEQ ID NO:1 10 mg/kg/48 hours i.v.; IL2 20000 or 5000 unit 2 times per day i.p.
Procedure: Cell line: Human renal carcinoma cell line (Caki-1) was grown as monolayer culture in Minimum essential medium (α-MEM) supplemented with 10% fetal bovine serum (FBS), 0.1 mM non-essential amino acid, 1.0 mM sodium pyruvate, 100 U/ml penicillin, 100 μg/ml streptomycin and 0.25 μg/ml amphotericin B and 2 mM L-alanyl-1-glutamine at 37° C. in an atmosphere of 5% CO2 in air. The tumour cells were routinely subcultured twice weekly by trypsin-EDTA treatment. The cells were harvested from subconfluent logarithmically growing culture by treatment with trypsin-EDTA and counted for tumour inoculation. […]
Groups and treatments: The following treatments were evaluated in this experiment: • 1. […]
Endpoints: The anti-tumour effects of SEQ ID NO:1 and IL-2, a standard immunotherapeutic for renal carcinoma, alone or in combination, on tmnour growth, was determined. Tumour sizes were measured every week day from day 7 after the tumour cell inoculation in two dimensions using a caliper, and the volume was expressed in mm^3 using the formula: V=0.5 a×b^2, where a and b are the long and short diameters of the tumour, respectively. Mean tumour volumes calculated from each measurement were then plotted in a standard graph to compare the anti-tumour efficacy to that of controls. A day after the last treatment, tumours were excised from the animals and their weights were measured.

For interleukin-2 [IL-2], the “anti-tumour efficacy (tumour volume, tumour weight)” value was “anti-tumour efficacy as monotherapies”.
